70 compounds from PubChem BioAssay AID651719 (The Scripps Research Institute Molecular Screening Center, 2012) can be followed below.

Amino acid sequences for entries named in this document (tags omitted). A change or cut given only in a name is not applied to a line headed by its entry.
UniProt O60755: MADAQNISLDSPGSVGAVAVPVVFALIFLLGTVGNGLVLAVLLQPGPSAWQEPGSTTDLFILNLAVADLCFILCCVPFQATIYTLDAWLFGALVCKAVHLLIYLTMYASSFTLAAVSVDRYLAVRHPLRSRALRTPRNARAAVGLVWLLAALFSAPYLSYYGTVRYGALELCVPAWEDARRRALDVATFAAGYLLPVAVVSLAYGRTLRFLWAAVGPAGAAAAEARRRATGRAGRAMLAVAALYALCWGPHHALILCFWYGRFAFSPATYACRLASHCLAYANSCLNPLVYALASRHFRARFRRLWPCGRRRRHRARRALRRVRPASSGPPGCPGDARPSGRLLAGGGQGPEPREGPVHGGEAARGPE

The entries are a selection whose mix differs from that of the whole data set. Active and inactive are the calls of the source.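 How the source made its calls: active means inhibition above the screen-wide average plus 3 SD (cut at about 13% in these data); inactive means the rest.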

In this assay the target is Galanin receptor type 3 (Homo sapiens) (UniProt O60755). The assay is described as follows: GalR3 antagonists in HEK293 cells, primary screen, cell-based, fluorescence readout (AID 651719).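 Further: forskolin and galanin both at EC90 stimulate the cells; cAMP rise reported by CNG channel membrane potential dye signal; 0% = forskolin plus galanin with DMSO and 100% = forskolin alone.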 As to conditions: HEK293 GalR3-CNG cAMP membrane potential fluorescence; at 3 µM; active compounds read high; galR3 body fused to GalR1 C-terminus.
For the compound `CCc1cc(O)c([N+](=O)[O-])c(C)c1[N+](=O)[O-]`, the inhibition – broadly, the change of the read-out against control, counted positive when it falls – was inactive: -2.97%. Regarding `CC(C)(C)C(=O)NC(Sc1ccccc1)C(Cl)(Cl)Cl` (stereo not given), the inhibition was inactive: -2.66%. `O=P1(Nc2nc3ccc(Cl)cc3s2)COc2ccccc2O1` (stereo not given): the inhibition was inactive: -4.24%. `CCOc1ccc(C2=NCC(CBr)S2)cc1` (stereo not given): the inhibition was inactive: -7.46%.

As to `CC(=O)Nc1ccc([As](=O)(O)O)c(O)c1`, the inhibition was inactive: -3.18%. Then `CC(=O)Nc1ccc(Oc2c([N+](=O)[O-])cc([N+](=O)[O-])cc2[N+](=O)[O-])cc1`, with inactive: -4.19%; and `N#C/C(=C\c1ccc(N(CCBr)CCBr)cc1)C(N)=O`, with inactive: -4.3%; and `CC(=O)c1ccc(N2CC2c2ccncc2)cc1` (stereo not given), with inactive: -7.45%.

On to `COC(=O)C1(C)COP(=O)(NCc2ccccc2)OC1` (stereo not given), for which the inhibition was inactive: 3.72%.

Regarding `Cc1ccccc1CN(C)C(=O)COC(=O)C(O)(c1ccccc1)c1ccccc1`, the inhibition is inactive: -2.37%.

`C[C@@H]1C=CCP(=O)(Oc2ccccc2)O1` (stereo not given in full): the inhibition is inactive: 6.3%. Take `C[C@H]1OP(=O)(Oc2ccccc2)C[C@@H]2O[C@@H]21` (stereo not given in full): the inhibition is inactive: -6.81%. For `O=P1(N(CCCl)CCCl)OCCC2CCCCN21` (stereo not given), the inhibition was inactive: -5.13%. Consider `O=C(NC1CCS(=O)(=O)C1)NP(=S)(Oc1ccccc1)Oc1ccccc1` (stereo not given), for which the inhibition was inactive: 4.78%.

For the compound `CCNC(=S)/N=C(\N)N[N+](=O)[O-]`, the inhibition was inactive: -6.92%. As to `c1ccc(-c2nn[nH]n2)c(-c2nn[nH]n2)c1`, the inhibition was inactive: -5.83%. `Cc1ccc(NP(=O)(Oc2cccc(C)c2)Oc2cccc(C)c2)nc1`: the inhibition was inactive: -1.01%. As to `Cc1ccccc1OP(=O)(Nc1ccccn1)Oc1ccccc1C`, the inhibition is inactive: 0.91%. For the compound `CC(NC(=O)COC(=O)C(O)(c1ccccc1)c1ccccc1)c1ccccc1` (stereo not given), the inhibition was inactive: -6.43%.

For the compound `CN(C)C(=O)Oc1noc2ccccc12`, the inhibition was inactive: -5.06%. Regarding `O=c1c2cc([N+](=O)[O-])ccc2[nH]c2c([N+](=O)[O-])cc([N+](=O)[O-])cc12`, the inhibition was inactive: -8.16%. Turning to `COC(=O)c1cc2c(s1)N=C(c1ccccc1)N(C)P2(=O)N1CCOCC1` (stereo not given), the inhibition is inactive: 1.68%. Then `Cc1ccc(OP(=O)(Nc2ccccn2)Oc2ccc(C)cc2)cc1`, with inactive: -2.75%. As to `CC(=O)NC(SC(=S)N(CC(C)C)CC(C)C)C(Cl)(Cl)Cl` (stereo not given), the inhibition was inactive: -1.91%. Then `O=C(OC1CN2CCC1CC2)c1ccccc1` (stereo not given), with inactive: -10.5%; and `CCC(=O)N1C2C3N(C(=O)CC)C1C1N(C(=O)CC)C(C(N1C(=O)CC)N3C(=O)CC)N2C(=O)CC`, with inactive: -1.54%. With `CCOP(=O)(Nc1ccccc1)OCC`, the inhibition was inactive: -5.94%. Regarding `Cc1cc(SC(NC(=O)c2ccc(F)cc2)C(Cl)(Cl)Cl)ncn1` (stereo not given), the inhibition was inactive: -4.27%. Then `CN(C(=O)Cc1ccc(Cl)c(Cl)c1)[C@H]1CCCC[C@@H]1N1CCCC1`, with inactive: -6.08%; and `Cc1ccc(NP(=O)(Oc2ccccc2F)Oc2ccccc2F)nc1`, with inactive: -4.9%. Regarding `CCn1c(=O)n(C2CCN(CC3CCCCCCC3)C[C@H]2CO)c2ccccc21` (stereo not given in full), the inhibition is inactive: -5.69%. With `O=C(O)c1ccccc1[As](=O)(O)O`, the inhibition is inactive: -6.87%. On to `CC(=O)Nc1ccc([As](=O)(O)O)cc1`, for which the inhibition was inactive: -6.6%.

`CCCC1OP(N)(=O)OCC1CC` (stereo not given): the inhibition is inactive: -7.11%.

In the case of `CN(C)P(=O)(N(C)C)n1c(Nc2ccccc2)nnc1-c1ccccc1`, the inhibition is inactive: -4.63%. With `O=P(Nc1nc2ccc(Cl)cc2s1)(c1ccccc1)c1ccccc1`, the inhibition was inactive: -5.96%.

As to `CN(C(=O)Cc1ccccc1)C1CC[C@@]2(CCCO2)C[C@@H]1N1CCCC1` (stereo not given in full), the inhibition is inactive: -2.46%.

As for `CCN(N=Nc1nonc1N)c1nonc1N`, the inhibition was inactive: -3.21%. With `Nc1cccc2ccc([As](=O)(O)O)cc12` the figure was inactive: -11.5%; with `COc1ccccc1OP(=O)(Nc1ccc(C)cn1)Oc1ccccc1OC`, inactive: -0.4%; with `Cc1ccc(OP(=O)(Nc2nccs2)Oc2ccc(C)cc2)cc1`, inactive: -4.29%. For `Clc1ccc(Cl)c(NC2=NCC(CBr)S2)c1` (stereo not given), the inhibition is inactive: -2.01%. With `CN1CCCC(OC(=O)C(c2ccccc2)c2ccccc2)C1` (stereo not given) the figure was inactive: -5.82%; with `NC(=O)c1cc([N+](=O)[O-])cc([N+](=O)[O-])c1N`, inactive: -3.53%. With `Cc1ccc(N/C(=N/P(=O)(N2CCOCC2)N2CCOCC2)N2CCOCC2)cc1` the figure was inactive: -3.51%; with `CC(C)CC(=O)NC(Sc1ccc(Cl)cc1)C(Cl)(Cl)Cl` (stereo not given), inactive: -2.77%; with `Nc1cc(N)c2nonc2c1[N+](=O)[O-]`, inactive: -4.91%.

On to `Oc1ccccc1CNc1ccccn1`, for which the inhibition is inactive: -3.97%. Then `O=C(NC(Sc1ccncn1)C(Cl)(Cl)Cl)c1ccccc1` (stereo not given), with inactive: 1.62%. With `CC(=O)N1C2C3N(C(C)=O)C1C1N(C(C)=O)C(C(N1C(C)=O)N3C(C)=O)N2C(C)=O`, the inhibition was inactive: -1.98%. With `O=[N+]([O-])c1cccc2n[nH]nc12` the figure was inactive: 3.5%. As to `Cc1ccc(NP(=O)(Oc2ccccc2)Oc2ccccc2)nc1`, the inhibition is active: 15.6%. Consider `O=[N+]([O-])c1cc([N+](=O)[O-])c(CCNc2ccccc2)c([N+](=O)[O-])c1`, for which the inhibition was inactive: 0.51%. For `CCc1nc2c(n1)c1c(non1O)c1c2no[n+]1[O-]`, the inhibition was active: 38.9%.

`COc1ccc(C2=NCC(CBr)S2)cc1` (stereo not given): the inhibition was inactive: -2.03%. Take `CC(C)=N/N=C(\N)N[N+](=O)[O-]`: the inhibition is inactive: 3.42%. Turning to `CC(C)c1nc(Nc2ccccc2)n(P(=O)(N(C)C)N(C)C)n1`, the inhibition was inactive: -7.09%. On to `CN(C)C(=O)OCCc1n(C)cc[n+]1C`, for which the inhibition is inactive: -9.82%.

On to `c1cc(-c2nn[nH]n2)ccc1-c1nn[nH]n1`, for which the inhibition is inactive: 5.4%.

On to `CC1CCN(C(=O)Oc2c(Cl)cc(Cl)c3cccnc23)CC1`, for which the inhibition is inactive: -3.6%.

In the case of `Nc1ccc([As](=O)(O)c2ccc(N)cc2)cc1`, the inhibition is inactive: -6.36%. With `C[N+]1=C2C=CC=CC=C2SC12C([N+](=O)[O-])=CC([N+](=O)[O-])=C[C-]2[N+](=O)[O-]` (stereo not given), the inhibition was inactive: -1.81%. Take `CCN(/C(=N/P(=O)(N1CCOCC1)N1CCOCC1)N1CCOCC1)c1ccc(OC)cc1`: the inhibition was inactive: 1.64%. On to `O=C(Nc1cc([As](=O)(O)O)ccc1O)c1ccccc1`, for which the inhibition is inactive: -6.93%. As to `O=P1(N(CCCl)CCCl)OCCCS1` (stereo not given), the inhibition was inactive: -7.19%.

For `O=[N+]([O-])c1cccc(NC2=NCC(CBr)S2)c1` (stereo not given), the inhibition was inactive: 1.95%.

In the case of `COC(=O)C1(C)COP(=O)(Nc2ccccc2)OC1` (stereo not given), the inhibition is inactive: 1.08%. For `O=C(O)CNc1ccc([As](=O)(O)O)cc1`, the inhibition is inactive: -6.84%. Then `CC(C)(C)C(=O)NC(Sc1ccncn1)C(Cl)(Cl)Cl` (stereo not given), with inactive: -4.56%. For the compound `O=[N+]([O-])c1ncn(CCn2ncnc2[N+](=O)[O-])n1`, the inhibition was inactive: -3.69%.
